Antibody variant affinities, Ab-14 light chain, assay 1

Target peptide (SARS-CoV-2 spike, HR2 region): PDVDLGDISGINAS

Parent scFv Ab-14: VH joined to VL by the linker GGGGSGGGGSGGGGS. Changes lie in the light chain CDRs alone.
VH: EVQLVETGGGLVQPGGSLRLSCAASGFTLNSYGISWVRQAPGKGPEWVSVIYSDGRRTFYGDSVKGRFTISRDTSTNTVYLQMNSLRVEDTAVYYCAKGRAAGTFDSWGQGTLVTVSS
VL: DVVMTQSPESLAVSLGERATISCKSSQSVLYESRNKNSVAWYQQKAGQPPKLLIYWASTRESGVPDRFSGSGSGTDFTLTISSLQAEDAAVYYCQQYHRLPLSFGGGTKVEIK

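The parent was found by panning a naive human phage display library on the peptide. AAYL50 was designed without a model: most single CDR substitutions and a random sample of double and triple ones. The assay is AlphaSeq: two haploid yeast populations carry antibody and antigen on their surface. The frequency of each diploid, read from paired DNA barcodes, reflects how well the two displayed proteins bind. Each replicate has its own calibration line, from reference interactions of the BCL2 family. Each pool was mated in three replicate cultures.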

Positions count from residue 1 of the parent VL; N37Q puts Q in place of N.
Values are apparent Kd, the geometric mean of the replicates that gave a signal; lower means stronger binding.
An entry "nd" has no value in the source: the pair was not observed among the diploids in any replicate. This suggests poor binding but is not conclusive.

Read-out 7.1 µM (1 of 3 replicates), from N37Q T59S Q96T.
Read-out nd (0 of 3 replicates), from S38C S62G Q96C.
Read-out 78 nM (2 of 3 replicates), from K24A N35L W56T.
Read-out nd (0 of 3 replicates), from Y31Q Q96K H98Y.
Read-out nd (0 of 3 replicates), from V39D A57G Q95M.
Read-out 5.4 nM (3 of 3 replicates), from E32P K36A P101G.
Read-out 1.5 µM (3 of 3 replicates), from E32H R34Q K36C.
Read-out nd (0 of 3 replicates), from V29R S33G R60C.
Read-out nd (0 of 3 replicates), from K24L N37G A40W.
Read-out 13 nM (3 of 3 replicates), from S26K K36G W56R.
Read-out nd (0 of 3 replicates), from S26I V39G L102C.
Read-out nd (0 of 3 replicates), from V39R A40Y Y97S.
Read-out nd (0 of 3 replicates), from S25K L30Q V39L.
Read-out 7.3 nM (3 of 3 replicates), from V29Y L30T Y31M.
Read-out 24 µM (1 of 3 replicates), from E32W V39Q H98R.
Read-out 27 nM (3 of 3 replicates), from T59S Q96F R99W.
Read-out 160 nM (3 of 3 replicates), from Y31S E32L T59S.
Read-out 91 µM (3 of 3 replicates), from T59W Q95A L102T.
Read-out 2.5 nM (3 of 3 replicates), from V29A H98Q L100N.
Read-out 110 µM (2 of 3 replicates), from S62W Y97S R99G.
Read-out 200 nM (3 of 3 replicates), from E32W K36F R99K.
Read-out nd (0 of 3 replicates), from V29Q N37S V39D.
Read-out 2.5 nM (3 of 3 replicates), from W56N L100H S103A.
Read-out 2.9 nM (3 of 3 replicates), from Q27E S58T S62P.
Read-out 7.7 µM (2 of 3 replicates), from K24L K36C A57K.
Read-out 52 nM (3 of 3 replicates), from K24N Q27I R99H.
Read-out 220 nM (1 of 3 replicates), from R34Q S38K L100F.
Read-out 2.5 µM (1 of 3 replicates), from A57M S62V Q95P.
Read-out 250 µM (2 of 3 replicates), from E32G R60K Q95M.
Read-out 5.3 nM (3 of 3 replicates), from E61M H98G P101E.
Read-out nd (0 of 3 replicates), from S28P S58I Y97W.
Read-out nd (0 of 3 replicates), from S26M S38Y.
Read-out 18 µM (1 of 3 replicates), from A40T R60S H98K.
Read-out 42 µM (1 of 3 replicates), from K24W Y31C S58L.
Read-out nd (0 of 3 replicates), from K24V K36D Q95S.
Read-out 38 µM (1 of 3 replicates), from N37W S62C L102Y.
Read-out nd (0 of 3 replicates), from A40L R60G S62P.
Read-out 460 nM (3 of 3 replicates), from S33I N35D.
Read-out 7.9 µM (1 of 3 replicates), from S33H T59Q P101T.
Read-out 97 nM (3 of 3 replicates), from Y31K N37S W56M.
Read-out nd (0 of 3 replicates), from R34D W56P S58A.
Read-out 3.9 nM (3 of 3 replicates), from S25I Y31V E61P.
Read-out nd (0 of 3 replicates), from S28Y S33G A57I.

Again, the first 7 entries without any signal:

changes,apparent Kd,detected
S38C S62G Q96C,nd,0 of 3
Y31Q Q96K H98Y,nd,0 of 3
V39D A57G Q95M,nd,0 of 3
V29R S33G R60C,nd,0 of 3
K24L N37G A40W,nd,0 of 3
S26I V39G L102C,nd,0 of 3
V39R A40Y Y97S,nd,0 of 3

Background: pairings of library AAYL50 with three empty control strains gave a value in 18% of cases (median 15 µM, 5th percentile 970 nM). Values in that range, when seen in few replicates, are hard to tell from nonspecific mating.
Parent in this assay: reference entry 4.4 nM, copy in this library 48 nM.

Source: Engelhart et al. 2022 (doi:10.1038/s41597-022-01779-4), MIT Lincoln Laboratory and A-Alpha Bio; data file from the FLAb repository.